# Results from PubChem BioAssay AID602429 (Sanford-Burnham Center for Chemical Genomics, 2012).
# Chains of the proteins cited; added tags and fusions are not shown.
# UniProt P63165, whole entry: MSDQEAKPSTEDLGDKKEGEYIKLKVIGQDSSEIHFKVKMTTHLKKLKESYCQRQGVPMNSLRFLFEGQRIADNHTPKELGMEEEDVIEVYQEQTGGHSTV
# This is a selection; strong and weak results do not stand in their true shares. Active and inactive are the calls of the source. No stated cut-off is given here; in the data, active means inhibition above about 37%; inactive means the rest.
# Target: Small ubiquitin-related modifier 1 (Homo sapiens) (UniProt P63165)
# Experiment: SUMO1 binding to interaction partners, disruption – biochemical, uHTS, primary screen (AID 602429)
# Conditions: SUMO1 binding to a labelled peptide, TR-FRET, 1 h; at 20 µM; hits give high values
row,Compound,inhibition
1,CCC(=O)N(c1ccccc1)C1(COC)CCN(CCn2nnn(CC)c2=O)CC1,inactive: 3.46%
2,CCC(=O)N(c1ccccc1)C1(COC)CCN(CCc2cccs2)CC1,inactive: -0.82%
